Tests used:
Assay in all cases: drug sensitivity score (DSS3, normalised partial AUC of % inhibition dose-response) (DSS (score)); higher = more sensitive (stronger inhibition of viability); extreme values may be limits of the assay
FMOC06 = patient-derived mucinous ovarian cancer cells; details: 72 h; library: FO5A; assay format: 2D, 384-well, CellTiter-Glo
Method in brief: (§1)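 Early-passage (under 10) patient-derived ovarian cancer cells were dispensed onto 384-well flat clear-bottom plates pre-plated with compounds at five concentrations spanning a 10,000-fold range, then incubated 72 h at 37 °C, 5% CO2. Viability was read with CellTiter-Glo, and the data were processed in Breeze. The drug sensitivity score is a partial area under the percent-inhibition dose-response curve divided by the log of the upper asymptote, with higher values meaning greater sensitivity.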

FMOC03 = patient-derived mucinous ovarian cancer cells; details: 72 h; library: FO5A; assay format: 2D, 384-well, CellTiter-Glo
Method in brief: as §1

FMOC27 = patient-derived low-grade serous ovarian cancer cells; details: 72 h; library: FO5A; assay format: 2D, 384-well, CellTiter-Glo
Method in brief: as §1

FMOC25_1 = patient-derived low-grade serous ovarian cancer cells; details: 72 h; library: FO4B; assay format: 2D, 384-well, CellTiter-Glo
Method in brief: as §1

FMOC17 = patient-derived low-grade serous ovarian cancer cells; details: 72 h; library: FO5A; assay format: 2D, 384-well, CellTiter-Glo
Method in brief: as §1

FMOC02_2 = patient-derived low-grade serous ovarian cancer cells; details: 72 h; library: FO5A; assay format: 2D, 384-well, CellTiter-Glo
Method in brief: as §1

FMOC14 = patient-derived high-grade serous ovarian cancer cells; details: 72 h; library: FO5A; assay format: 2D, 384-well, CellTiter-Glo
Method in brief: as §1

FMOC04 = patient-derived high-grade serous ovarian cancer cells; details: 72 h; library: FO5A; assay format: 2D, 384-well, CellTiter-Glo
Method in brief: as §1

FMOC02_1 = patient-derived low-grade serous ovarian cancer cells; details: 72 h; library: FO5A; assay format: 2D, 384-well, CellTiter-Glo
Method in brief: as §1

FMOC09 = patient-derived high-grade serous ovarian cancer cells; details: 72 h; library: FO5A; assay format: 2D, 384-well, CellTiter-Glo
Method in brief: as §1

FMOC25_2 = patient-derived low-grade serous ovarian cancer cells; details: 72 h; library: FO5A; assay format: 2D, 384-well, CellTiter-Glo
Method in brief: as §1

FMOC22 = patient-derived mucinous ovarian cancer cells; details: 72 h; library: FO5A; assay format: 2D, 384-well, CellTiter-Glo
Method in brief: as §1

FMOC11 = patient-derived high-grade serous ovarian cancer cells; details: 72 h; library: FO5A; assay format: 2D, 384-well, CellTiter-Glo
Method in brief: as §1

FMOC28 = patient-derived low-grade serous ovarian cancer cells; details: 72 h; library: FO5A; assay format: 2D, 384-well, CellTiter-Glo
Method in brief: as §1

FMOC02_3 = patient-derived low-grade serous ovarian cancer cells; details: 72 h; library: FO5A; assay format: 2D, 384-well, CellTiter-Glo
Method in brief: as §1

FMOC24 = patient-derived high-grade serous ovarian cancer cells; details: 72 h; library: FO5A; assay format: 2D, 384-well, CellTiter-Glo
Method in brief: as §1

In the case of `NCc1ccc(OCCCc2sc(-c3ccc4c(c3)/C(=N/Nc3nc5ccccc5s3)CCC4)nc2C(=O)O)cc1` [WEHI-539], the drug sensitivity score (FMOC06) is reported as 3, the drug sensitivity score (FMOC03) is reported as 1.9 and the drug sensitivity score (FMOC27) is reported as 6.9. For the same molecule, the drug sensitivity score (FMOC25_1) was 4.2, the drug sensitivity score (FMOC17) was 0.4 and the drug sensitivity score (FMOC02_2) was 6.4. For the same molecule, the drug sensitivity score (FMOC14) was 1.5, the drug sensitivity score (FMOC04) was 0 and the drug sensitivity score (FMOC02_1) was 5.1. The drug sensitivity score (FMOC09) was 0, the drug sensitivity score (FMOC25_2) was 0.1 and the drug sensitivity score (FMOC22) was 0. The drug sensitivity score (FMOC11) was 3.1, the drug sensitivity score (FMOC28) was 3 and the drug sensitivity score (FMOC02_3) was 0.5. For the same molecule, the drug sensitivity score (FMOC24) was 3.7.
